Test results published in paper PMC8341974 (RSC Chemical Biology, 2021).

Biological target: T1, SIRT1 (Homo sapiens, UniProt Q96EB6)
T1 sequence (Q96EB6 193-741): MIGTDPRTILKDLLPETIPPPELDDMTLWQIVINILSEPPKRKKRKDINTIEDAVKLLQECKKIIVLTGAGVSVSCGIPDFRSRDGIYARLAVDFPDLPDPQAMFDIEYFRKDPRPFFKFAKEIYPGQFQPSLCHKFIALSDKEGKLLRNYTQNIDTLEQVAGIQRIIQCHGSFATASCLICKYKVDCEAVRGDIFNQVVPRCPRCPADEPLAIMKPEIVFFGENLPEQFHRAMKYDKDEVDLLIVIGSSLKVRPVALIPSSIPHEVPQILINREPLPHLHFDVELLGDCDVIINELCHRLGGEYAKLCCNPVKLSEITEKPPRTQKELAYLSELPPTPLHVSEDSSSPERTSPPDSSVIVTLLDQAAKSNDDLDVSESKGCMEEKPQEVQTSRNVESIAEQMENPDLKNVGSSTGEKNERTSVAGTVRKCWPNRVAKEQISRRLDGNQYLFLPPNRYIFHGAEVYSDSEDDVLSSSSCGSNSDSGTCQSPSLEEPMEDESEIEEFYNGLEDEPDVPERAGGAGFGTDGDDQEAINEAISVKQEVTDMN
Experiment: End-point SIRT1 deacetylation inhibition assay
Type: biochemical
Conditions: 100 µM inhibitor; QPKKac 50 µM; NI = no inhibition

- %inhibition SIRT1, QPKKac: <50% [100 μM]
Structure (SMILES): CN(C)CCCCC(=O)Nc1ccc(NC(=S)NC(=O)c2ccc(C(C)(C)C)cc2)cc1 [Tenovin-6, reference compound]
